{
  "source": "patent US10905781B2",
  "about": "“Reporter platform for real time monitoring of drug efficacy” (THE BRIGHAM AND WOMEN'S HOSPITAL, INC., priority 2016, dated 2021)",
  "origin": "cited, not measured here",
  "conditions": "patients with a wild type KRAS; cited from earlier work",
  "data": [
    {"substance": "cetuximab: anticancer drug cited in the background", "values": [
      {"measurement": "patients who do not respond", "value": "40-60%"}
    ]}
  ]
}
